This passage reports IC50 results from patent US8772480B2, “Inhibitors of PI3 kinase and/or mTOR” (priority 2009, dated 2014).

For this assay, the target named is mammalian target of rapamycin (mTOR) (Homo sapiens (Human), UniProt P42345). The following applies: read-out: mTOR IC50.
What is called IC50 is the concentration at which inhibition is half-maximal. For the molecule `COc1ncc(Nc2nc(C)ccc2-c2nc(C)nc(N)n2)cc1F` [Example 197, 4-(2-(5-Fluoro-6-Methoxypyridin-3-Ylamino)-6-Methylpyridin-3-yl)-6-Methyl-1,3,5-Triazin-2-Amine], the half-maximal inhibitory concentration (IC50) was greater than 10000 nM.
In the case of “4-((5-(4-Amino-6-Methyl-1,3,5-Triazin-2-yl)-6-(5-Fluoro-6-Methoxypyridin-3-Ylaamino)Pyridin-3-yl)Methyl)-N-Methyl-N-(2,2,2-Trifluoroethyl)Piperazine-1-Carboxamide [Example 358]” it was 1740 nM; in that of `Cc1nc(-c2cccnc2Nc2cccc3[nH]ncc23)c2cn[nH]c2n1` [Example 55, N-(3-(6-methyl-1H-pyrazolo[3,4-d]pyrimidin-4-yl)pyridin-2-yl)-1H-indazol-4-amine], greater than 50000 nM.
With `COc1ncc(Nc2ncc(C3(N)CC3)cc2-c2nc(C)nc(N)n2)cc1F` [Example 300, 4-(5-(1-Aminocyclopropyl)-2-(5-Fluoro-6-Methoxypyridin-3-Ylamino)Pyridin-3-yl)-6-Methyl-1,3,5-Triazin-2-Amine], the IC50 is greater than 10000 nM.
As for `Cc1nc(N)nc(-c2cc(C(C)N3CCOCC3)cnc2Nc2cnc(Cl)c(NS(=O)(=O)N(C)C)c2)n1` (stereo not shown) [Example 370, N-(5-(3-(4-Amino-6-Methyl-1,3,5-Triazin-2-yl)-5-(1-Morpholinoethyl)Pyridin-2-Ylamino)-2-Chloropyridin-3-yl)-N,N-Dimethylaminosulfamide], the IC50 is 700 nM.
As for `COc1ncc(Nc2ncc(C(C)N3CCN(S(C)(=O)=O)CC3)nc2-c2cc(N)nc(C)n2)cc1F` (stereo not shown) [Example 283, 6-(3-(5-Fluoro-6-Methoxypyridin-3-Ylamino)-6-(1-(4-(Methylsulfonyl)Piperazin-1-yl)Ethyl)Pyrazin-2-yl)-2-Methylpyrimidin-4-Amine], the IC50 is greater than 10000 nM.
As to `COCCNC(=O)c1cnc(Nc2ccc(OC)nc2)c(-c2nc(C)nc(N)n2)c1` [Example 153, 5-(4-Amino-6-Methyl-1,3,5-Triazin-2-yl)-N-(2-Methoxyethyl)-6-((6-Methoxy-3-Pyridinyl)Amino)-3-Pyridinecarboxamide], the IC50 is greater than 10000 nM.
On to `COC(=O)Nc1ccc(Nc2ncc(Cl)cc2-c2nc(C)nc(N)n2)cn1` [Example 194, Methyl 5-(3-(4-Amino-6-Methyl-1,3,5-Triazin-2-yl)-5-Chloropyridin-2-Ylamino)Pyridin-2-Ylcarbamate], for which the 50% inhibitory concentration (IC50) was greater than 10000 nM.
In the case of `COc1ccc(Nc2ccncc2-c2nc(C)nc3[nH]cnc23)cn1` [Example 111, 6-methoxy-N-(3-(2-methyl-9H-purin-6-yl)pyridin-4-yl)pyridin-3-amine] it was greater than 10000 nM; in that of `c1cnc(Nc2cccc3[nH]ccc23)c(-c2ncnc3[nH]cnc23)c1` [Example 19, N-(3-(9H-Purin-6-yl)Pyridin-2-yl)-1H-Indol-4-Amine], greater than 50000 nM; in that of `COC(=O)N1CCN(Cc2cnc(Nc3ccc(OC)nc3)c(-c3nc(C)nc4[nH]cnc34)c2)CC1` [Example 86, Methyl 4-((6-(6-Methoxypyridin-3-Ylamino)-5-(2-Methyl-9H-Purin-6-yl)Pyridin-3-yl)Methyl)Piperazine-1-Carboxylate], 346 nM.
For `Cc1nc(N)nc(-c2cc(CN3CCN(S(C)(=O)=O)CC3)cnc2Nc2cccc3[nH]ncc23)n1` [Example 36, N-(3-(4-amino-6-methyl-1,3,5-triazin-2-yl)-5-((4-(methylsulfonyl)piperazin-1-yl)methyl)pyridin-2-yl)-1H-indazol-4-amine], the half-maximal inhibitory concentration (IC50) was greater than 10000 nM.
On to `Cc1nc(N)nc(-c2cc(CN3CCN(C(=O)N(C)C)CC3)cnc2Nc2cnc(O)c(F)c2)n1` [Example 160, 4-((5-(4-Amino-6-Methyl-1,3,5-Triazin-2-yl)-6-(5-Fluoro-6-Hydroxypyridin-3-Ylamino)Pyridin-3-yl)Methyl)-N,N-Dimethylpiperazine-1-Carboxamide], for which the concentration for half-maximal inhibition (IC50) was greater than 10000 nM.
With `COc1ccc(Nc2ncc(CNC(C)(C)C)cc2-c2nc(C)nc3[nH]cnc23)cn1` [Example 134, 5-((tert-butylamino)methyl)-N-(6-methoxypyridin-3-yl)-3-(2-methyl-9H-purin-6-yl)pyridin-2-amine], the IC50 is greater than 10000 nM.
As to `COc1ccc(Nc2ncc(C3=CCOCC3)cc2-c2nc(C)nc(N)n2)cn1` [Example 256, 4-(5-(3,6-Dihydro-2H-Pyran-4-yl)-2-(6-Methoxypyridin-3-Ylamino)Pyridin-3-yl)-6-Methyl-1,3,5-Triazin-2-Amine], the half-inhibitory concentration (IC50) is greater than 10000 nM.
In the case of `C=Cc1cnc(Nc2cnc(Cl)c(NS(C)(=O)=O)c2)c(-c2cc(N)nc(C)n2)c1` [Example 380, N-(5-(3-(6-Amino-2-Methylpyrimidin-4-yl)-5-Vinylpyridin-2-Ylamino)-2-Chloropyridin-3-yl)Methanesulfonamide] it was 264 nM; in that of `COc1ncc(Nc2ncc(C(C)(C)N3CCOCC3)cc2-c2nc(C)nc(N)n2)cc1F` [Example 281, 4-(2-(5-Fluoro-6-Methoxypyridin-3-Ylamino)-5-(2-Morpholinopropan-2-yl)Pyridin-3-yl)-6-Methyl-1,3,5-Triazin-2-Amine], greater than 10000 nM.
As for `Cc1nc(N)cc(-c2cccnc2Nc2cccc(O)c2)n1` [Example 26, 3-(3-(6-Amino-2-Methylpyrimidin-4-yl)Pyridin-2-Ylamino)Phenol], the IC50 is 535 nM.
For the molecule `CC(=O)Nc1ccc(Nc2ncccc2-c2nc(C)nc3[nH]cnc23)cc1` [Example 102, N-(4-(3-(2-methyl-9H-purin-6-yl)pyridin-2-ylamino)phenyl)acetamide], the half-inhibitory concentration (IC50) came to 35 nM.
Turning to `COc1ccc(Nc2ncc([C@@H](O)C(F)(F)F)cc2-c2nc(C)nc(N)n2)cn1` [Example 322, (R)-1-(5-(4-amino-6-methyl-1,3,5-triazin-2-yl)-6-(6-methoxypyridin-3-ylamino)pyridin-3-yl)-2,2,2-trifluoroethanol], the half-maximal inhibitory concentration (IC50) was found to be 599 nM.
Turning to `COc1ncc(Nc2ncc(C(=O)N3CCN(S(C)(=O)=O)CC3)cc2-c2nc(C)nc(N)n2)cc1F` [Example 152, 4-(2-((5-Fluoro-6-Methoxy-3-Pyridinyl)Amino)-5-((4-(Methylsulfonyl)-1-Piperazinyl)Carbonyl)-3-Pyridinyl)-6-Methyl-1,3,5-Triazin-2-Amine], the IC50 is greater than 10000 nM.
On to `COc1ncc(Nc2ncc(C(C)N)cc2-c2nc(C)nc(N)n2)cc1F` (stereo not shown) [Example 327, 4-(5-(1-Aminoethyl)-2-(5-Fluoro-6-Methoxypyridin-3-Ylamino)Pyridin-3-yl)-6-Methyl-1,3,5-Triazin-2-Amine], for which the 50% inhibitory concentration (IC50) was 917 nM.
In the case of `COc1ccc(Nc2ncc(NCc3ccccc3)cc2-c2nc(C)nc3[nH]cnc23)cn1` [Example 91, N5-benzyl-N2-(6-methoxypyridin-3-yl)-3-(2-methyl-9H-purin-6-yl)pyridine-2,5-diamine], the IC50 is greater than 10000 nM.
In the case of `COc1ccc(Nc2ncc(C(C)c3ccc(S(C)(=O)=O)cc3)cc2-c2nc(C)nc(N)n2)cn1` (stereo not shown) [Example 149, 4-(2-(6-Methoxypyridin-3-Ylamino)-5-(1-(4-(Methylsulfonyl)Phenyl)Ethyl)Pyridin-3-yl)-6-Methyl-1,3,5-Triazin-2-Amine] it was greater than 10000 nM; in that of `COc1ccc(Nc2ncc(Cc3ccccc3)cc2-c2nc(C)nc(N)n2)cn1` [Example 156, 4-(5-Benzyl-2-(6-Methoxypyridin-3-Ylamino)Pyridin-3-yl)-6-Methyl-1,3,5-Triazin-2-Amine], greater than 10000 nM.
In the case of `COc1ncc(Nc2ncc(CN3CCN(C(=O)N(C)C(C)C)CC3)cc2-c2nc(C)nc(N)n2)cc1F` [Example 357, 4-((5-(4-Amino-6-Methyl-1,3,5-Triazin-2-yl)-6-(5-Fluoro-6-Methoxypyridin-3-Ylamino)Pyridin-3-yl)Methyl)-N-Isopropyl-N-Methylpiperazine-1-Carboxamide] it was greater than 10000 nM; in that of `Cc1nc(N)nc(-c2cc(CN3CCN(S(C)(=O)=O)CC3)cnc2Nc2cc[nH]n2)n1` [Example 244, 4-(2-(1H-Pyrazol-3-Ylamino)-5-((4-(Methylsulfonyl)Piperazin-1-yl)Methyl)Pyridin-3-yl)-6-Methyl-1,3,5-Triazin-2-Amine], 389 nM.
In the case of `COc1ccc(Nc2nc(-c3ccc(F)cc3)ncc2-c2nc(C)nc(N)n2)cn1` [Example 125, 4-(2-(4-fluorophenyl)-4-(6-methoxypyridin-3-ylamino)pyrimidin-5-yl)-6-methyl-1,3,5-triazin-2-amine] it was greater than 10000 nM; in that of `COc1ccc(Nc2ncc(CN3CCCCC3)cc2-c2nc(C)nc(N)n2)cn1` [Example 222, 4-(2-(6-Methoxypyridin-3-Ylamino)-5-(Piperidin-1-Ylmethyl)Pyridin-3-yl)-6-Methyl-1,3,5-Triazin-2-Amine], greater than 10000 nM; in that of `COc1ccc(COCc2cnc(Nc3cccc4[nH]ccc34)c(-c3nc(C)nc4[nH]cnc34)c2)cc1` [Example 71, N-(5-((4-methoxybenzyloxy)methyl)-3-(2-methyl-9H-purin-6-yl)pyridin-2-yl)-1H-indol-4-amine], greater than 50000 nM.
As to `Cc1nc(N)nc(-c2cc([C@@H](C)N3CCOCC3)cnc2Nc2cnc(Cl)c(NS(=O)(=O)N(C)C)c2)n1` [Example 373, (R)—N-(5-(3-(4-Amino-6-Methyl-1,3,5-Triazin-2-yl)-5-(1-Morpholinoethyl)Pyridin-2-Ylamino)-2-Chloropyridin-3-yl)-N,N-Dimethylaminosulfamide], the IC50 amounted to 315 nM.
For `COc1ncc(Nc2ncc(CN3CCN(S(C)(=O)=O)C[C@@H]3C)cc2-c2nc(C)nc(N)n2)cn1` [Example 319, (S)-4-(2-(2-Methoxypyrimidin-5-Ylamino)-5-((2-Methyl-4-(Methylsulfonyl)Piperazin-1-yl)Methyl)Pyridin-3-yl)-6-Methyl-1,3,5-Triazin-2-Amine], the IC50 stood at 1580 nM.
As to `COc1ncc(Nc2ncc([C@@H](C)N3CCN(S(C)(=O)=O)CC3)cc2-c2cc(N)nc(C)n2)cc1F` [Example 305, 6-(2-((5-fluoro-6-methoxy-3-pyridinyl)amino)-5-((1R)-1-(4-(methylsulfonyl)-1-piperazinyl)ethyl)-3-pyridinyl)-2-methyl-4-pyrimidinamine], the half-inhibitory concentration (IC50) is greater than 10000 nM.
With `COc1ccc(Nc2ncc(Cc3ccc(S(C)(=O)=O)cc3)cc2-c2nc(C)nc3[nH]cnc23)cn1` [Example 103, N-(6-methoxypyridin-3-yl)-3-(2-methyl-9H-purin-6-yl)-5-(4-(methylsulfonyl)benzyl)pyridin-2-amine], the IC50 came to 245 nM.
